miR-21 reporter = raises the signal of a miR-21 reporter; AID 2288; 340,000 tested, under 10 active; Potency, µM (doses to about 38.3 µM), inactives show at the top dose reporter change, positive = more light; HeLa miR-21 FLuc reporter, luciferase, 48 h; active = well fitted rising curve with a large enough effect; inconclusive = small, poorly fitted or top-dose-only effect; inactive = no such curve, though single readings can be large or run the other way;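 note: % of control where 0% means no effect; miR-21 action dims this reporter so a rising signal means less miR-21 action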
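HeLa cells stably expressing CMV-driven firefly luciferase with a downstream miR-21 binding sequence, endogenously expressing miR-21, were treated with titrations (up to about 40uM final) for 48 hours at 37 degree Celsius. Luciferase luminescence was read after lysis.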
Nrf2 block = Nrf2 pathway inhibition; Potency, µM (titrated, usually from 46 µM), for the others: top-dose activity change, negative = inhibition, actives largely listed as inhibitors; 360,000 tested, 2.1% active; A549 ARE-Fluc reporter, luciferase luminescence, 18-24 h; AID 504444; also: potency is read from the fitted curve at half-maximal effect; % is scaled to controls: 0 for no effect and ±100 for the full control effect; nearly all actives have a fitted effect of over 60% in size
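Quantitative HTS in A549 cells stably bearing an antioxidant response element-firefly luciferase construct. Inhibition of Nrf2-driven transcription was scored by luminescence after 18-24 h of compound exposure at 37 °C.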
Nrf2 activator = activators of Nrf2 (ARE) signaling | AREc32 ARE-luciferase reporter (MCF7-derived line), luminescence, 24 h | Potency, µM (series often up to 46.1 µM), for the others: at the highest dose activation, usual class: activators | 410,000 tested, 0.31% active; also: potency is read from the fitted curve at half-maximal effect; % of control where 0% means no effect; nearly all actives have a fitted effect of over 65% in size
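Reporter line AREc32 (ARE-Fluc), seeded overnight in OPTI-MEM with 5% FBS; compound pin-transferred, 24 hr at 37 deg C, 5% CO2; luminescent read-out.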
A549 viability = A549 cytotoxicity, counter-screen for Nrf2 inhibitors | A549 ARE-Fluc cells, CellTiter-Fluor viability, 18-24 h | Potency, µM (series often up to 46 µM), for inactives: at the highest dose activity change, negative = cytotoxicity, actives largely listed as inhibitors | 390,000 tested, 0.16% active; also: potency is read from the fitted curve at half-maximal effect; % is scaled to controls: 0 for no effect and ±100 for the full control effect
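A549 ARE_Fluc cells in 5% FBS OPTI-MEM were exposed to compounds in concentration-response for 18-24 h at 37 deg C. Viability was read by CellTiter-Fluor fluorescence (Ex 405/Em 525) after 30 min, before the luciferase read.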
B2AR arrestin = beta2AR (human) beta-arrestin recruitment activity | Potency, µM (top dose mostly 46.1 µM), without a hit: top-dose activation, most hits filed as activators | 330,000 tested, 0.02% active | beta-arrestin recruitment to beta2AR, cell-based reporter | AID 492947;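 also: potency is read from the fitted curve at half-maximal effect; 0% = DMSO controls and full agonism = EC100 isoproterenol or metaproterenol; nearly all actives have a fitted effect of over 65% in size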
Numbers without * were called inactive; ? = inconclusive; / = not tested or not shown. Compounds with a hit are over-represented: about 2.2% of the library has one in this group of screens. Unless noted, calls follow the shape of the dose curve; as a rule, active = well fitted curve in the direction sought with a large enough effect; inconclusive = small, poorly fitted or top-dose-only effect, or another doubt; inactive = no such curve, though single readings can be large; an effect the other way counts as inactive or inconclusive.

entry	compound	Nrf2 activator	A549 viability	miR-21 reporter
1	O=C(CCCn1c(=O)c2cccn2c2ccccc21)Nc1cccc(Cl)c1	0%	-12%	-76%
2	COc1ccccc1CNC(=O)CCc1c(C)nc2cc(-c3ccc(Cl)cc3)nn2c1C	-3%	2%	-4%
3	Cc1csc(NC(=O)CCc2c(C)nc3cc(-c4ccc(Cl)cc4)nn3c2C)n1	-2%	0%	18%
4	Cc1nc2cc(-c3ccc(Cl)cc3)nn2c(C)c1CCC(=O)NC(C)c1ccc2c(c1)OCCO2 (stereo unspecified)	-3%	-4%	19%
5	C=C1CC2C(=O)N(Cc3cc(OC)ccc3OC)C(C(=O)OCC)C1N2C (stereo unspecified)	/	-1%	/
6	CCOC(=O)C1=C(CN2CCCCC2)NC(=O)NC1c1cc(C)ccc1C (stereo unspecified)	1%	-4%	-3%
7	CCOC(=O)C1=C(CSCc2ccccc2)NC(=O)NC1c1cc(C)ccc1C (stereo unspecified)	0%	?	24%
8	Cc1ccccc1CNC(=O)CCC(=O)N1CCSc2ccccc21	3%	-1%	-2%
9	CCOc1ccc(OCC)c(S(=O)(=O)NCCOC23CC4CC(CC(C4)C2)C3)c1	0%	0%	21%
10	COc1cc(S(=O)(=O)NCCOC23CC4CC(CC(C4)C2)C3)c(OC)cc1Cl	0%	-1%	0%

entry	Nrf2 block	B2AR arrestin
1	?	/
2	-15%	/
3	1.5µM*	-1%
4	13µM*	-1%
5	19%	/
6	-4%	0%
7	18µM*	0%
8	6%	/
9	?	0%
10	21µM*	-2%

Copied from the list:
A549 viability with no. 9 reads 0%
Nrf2 block with no. 10 reads 21µM*

Three of the entries above in order of the miR-21 reporter value, falling:
no.	molecule	miR-21 reporter
4	Cc1nc2cc(-c3ccc(Cl)cc3)nn2c(C)c1CCC(=O)NC(C)c1ccc2c(c1)OCCO2 (stereo unspecified)	19%
8	Cc1ccccc1CNC(=O)CCC(=O)N1CCSc2ccccc21	-2%
2	COc1ccccc1CNC(=O)CCc1c(C)nc2cc(-c3ccc(Cl)cc3)nn2c1C	-4%

Following part.
entry	compound	Nrf2 activator	A549 viability	miR-21 reporter
11	COc1ccc(CCNC(=O)c2ccc(Cn3c(=O)c4ccccc4n(CC(=O)C(C)(C)C)c3=O)cc2)cc1OC	1%	-14%	0%
12	COCCCn1c(N)c(-c2nc3ccccc3n2C)c2nc3ccccc3nc21	5%	-16%	21%
13	COc1ccc(Cl)cc1NC(=O)c1cc(C)nc2c1c(C)nn2-c1ccccc1	0%	8%	1%
14	O=C(NCc1ccco1)c1ccc2c(c1)N(Cc1ccccc1)C(=O)CS2	5%	-1%	7%
15	COc1ccc(OC)c(S(=O)(=O)N2CCN(S(=O)(=O)c3ccc4c(c3)OCCO4)CC2)c1	/	0%	/
16	C/C(=N\NC(=O)c1ccc(Cl)c(Cl)c1)c1ccc(Br)s1	0%	-11%	-3%
17	Cc1nc2c(=O)n(C)c(=O)n(C)c2nc1Cl	?	?	?
18	CCN(CC)c1ccc2nc3c(=O)n(C)c(=O)n(C)c3nc2c1	5%	-13%	-7%
19	CCOc1ccc(C(=O)Nc2cc(-c3cn4cccnc4n3)ccc2C)cc1OCC	-1%	0%	-2%
20	Cc1cccc(Cn2c(SCc3ccc(C(=O)NC4CCCC4)cc3)nc3ccncc32)c1	1%	-6%	-5%

entry	Nrf2 block	B2AR arrestin
11	?	/
12	21µM*	0%
13	22%	/
14	23µM*	0%
15	-8%	/
16	7.3µM*	1%
17	18µM*	0%
18	-6%	/
19	/	/
20	21µM*	/

The list goes on.
entry	compound	Nrf2 activator	A549 viability	miR-21 reporter
21	Cc1ccc(Cn2c(SCc3ccc(C(=O)N4CCCCCC4)cc3)nc3ccncc32)cc1	0%	-14%	22%
22	Cc1ccc(Cn2c(SCc3ccc(C(=O)N4CCCCC4)cc3)nc3ccncc32)cc1	0%	-16%	24%
23	COc1cccc2sc(N(Cc3cccnc3)C(=O)c3ccc4c(c3)OCCO4)nc12	4%	-4%	1%
24	O=[S+]([O-])(c1ccc2ncsc2c1)N1CCN([S+](=O)([O-])c2c(F)cccc2F)CC1	/	-1%	/
25	Nc1ncc(-c2ccccc2)c(-c2ccc(OCc3ccccc3)cc2O)n1	0%	-15%	-11%
26	COc1ccc(-c2nc(N)ncc2-c2ccccc2)c(O)c1	0%	12%	-8%
27	O=C1C=CC(=O)N1Cc1ccccc1	8%	?	?
28	O=C1C2CC=CCC2C(=O)N1Cc1ccccc1 (stereo unspecified)	0%	11%	-2%
29	COc1ccc(CCN(Cc2cc3cc(C)cc(C)c3nc2Cl)C(=O)C2CC2)cc1	-1%	-21%	6%
30	COc1ccc(CN(CC2CCC(C(=O)O)CC2)C(=S)Nc2ccc(C)c(Cl)c2)cc1 (stereo unspecified)	0%	-7%	-5%

entry	Nrf2 block	B2AR arrestin
21	15µM*	/
22	?	/
23	/	/
24	10%	/
25	23µM*	3%
26	14%	-1%
27	16µM*	0%
28	13%	-1%
29	16µM*	-1%
30	?	0%

High-throughput results as filed in PubChem BioAssay.
